Test results reported in patent US9605029B2, “Antibody-binding peptide” (NATIONAL INSTITUTE OF ADVANCED INDUSTRIAL SCIENCE AND …, priority 2013, dated 2017).

Target: T1, Fc region prepared by digesting human monoclonal antibody IgG with papain (Homo sapiens, UniProt P01857)
T1 construct: The Fc region to be immobilized to a sensor chip was prepared, by digesting human monoclonal antibody IgG with papain; made in house; host or cells: papain digest of human monoclonal IgG (Pierce Fab Preparation Kit), then MabSelect SuRe, HiTrap DEAE and Superdex 200
Assay: Surface plasmon resonance, polypeptides on immobilized Fc region prepared from human monoclonal IgG (Example 2, 3) and 4); Example 8)
Format: binding
Method: 3) In this section, it will be stated as an example that the binding activity of polypeptides consisting of amino acid sequences of SEQ ID NOs: 24 to 27 (referred to as pep14, pep11, pep21 and pep24, respectively) was measured by surface plasmon resonance. The polypeptides, which were previously synthesized in an organic chemical manner were purchased from bioSYNTHESIS, were diluted with HBS-T buffer and controlled so as to have a concentration of 500, 400, 300, 200 or 100 nM. The surface plasmon resonance test was performed by using Biacore T100 (GE Healthcare). […] The binding activity of the synthesized peptides prepared was measured and equilibrium dissociation constants were determined. […]
4) In this section, it will be stated as an example that the binding activity of a polypeptide consisting of an amino acid sequence (referred to as p17) of SEQ ID NO: 57 was measured by surface plasmon resonance. […]
Subsequently, the binding activity of p17 prepared was measured by surface plasmon resonance by use of Biacore T100 (GE Healthcare). […]
Subsequently, the binding activity of five types of polypeptides prepared above was analyzed by surface plasmon resonance. […] An Fc region was immobilized to Sensor Chip CM5 (GE Healthcare) and binding activity was analyzed in the same manner as in Example 2, 4). […]

SMILES	Kd (variant polypeptide with alanine substitution, read-out: Equilibrium dissociation constant of p17 variant KD)	Kd (synthetic polypeptide, read-out: equilibrium dissociation constants KD)
CC[C@H](C)[C@H](NC(=O)CNC(=O)[C@@H]1CCCN1C(=O)CN)C(=O)N[C@@H](CO)C(=O)N[C@@H](C)C(=O)N[C@@H](Cc1ccccc1)C(=O)N[C@@H](CO)C(=O)N1CCC[C@H]1C(=O)NCC(=O)N[C@@H](CCCNC(=N)N)C(=O)NCC(=O)N[C@H](C(=O)N[C@@H](Cc1ccc(O)cc1)C(=O)N[C@@H](CC(=O)O)C(=O)N1CCC[C@H]1C(=O)N[C@@H](CCC(=O)O)C(=O)N[C@H](C(=O)NCC(=O)N[C@H](C(=O)N[C@@H](Cc1c[nH]c2ccccc12)C(=O)N[C@@H](Cc1ccc(O)cc1)C(=O)N[C@@H](CC(=O)O)C(=O)N[C@@H](C)C(=O)N[C@@H](C)C(=O)N[C@@H](Cc1c[nH]c2ccccc12)C(=O)N[C@@H](Cc1c[nH]cn1)C(=O)N[C@@H](CC(C)C)C(=O)NCC(=O)N[C@@H](CCC(=O)O)C(=O)N[C@@H](CC(C)C)C(=O)N[C@H](C(=O)N[C@@H](Cc1c[nH]c2ccccc12)C(=O)N[C@@H](C)C(=O)N[C@H](C(=O)N[C@@H](Cc1ccc(O)cc1)C(=O)N[C@@H](Cc1ccc(O)cc1)C(=O)N[C@@H](CC(=O)O)C(=O)N1CCC[C@H]1C(=O)N[C@@H](CCC(=O)O)C(=O)N[C@H](C(=O)NCC(=O)N[C@H](C(=O)N[C@@H](Cc1c[nH]c2ccccc12)C(=O)N[C@@H](CCC(=O)O)C(=O)N1CCC[C@H]1C(=O)N[C@@H](CC(=O)O)C(=O)N[C@@H](Cc1c[nH]c2ccccc12)C(=O)N[C@@H](CCC(N)=O)C(=O)N[C@@H](CCCNC(=N)N)C(=O)N[C@@H](C)C(=O)N[C@@H](CC(C)C)C(=O)NCC(=O)N[C@@H](CCC(N)=O)C(=O)O)[C@@H](C)O)[C@@H](C)O)[C@@H](C)O)C(C)C)[C@@H](C)O)[C@@H](C)O)C(C)C [SEQ ID NO: 178]	180 nM	
CSCC[C@H](NC(=O)[C@H](CCCNC(=N)N)NC(=O)[C@H](CCC(N)=O)NC(=O)[C@H](Cc1c[nH]c2ccccc12)NC(=O)[C@H](CC(=O)O)NC(=O)[C@@H]1CCCN1C(=O)[C@H](CCC(=O)O)NC(=O)[C@H](Cc1c[nH]c2ccccc12)NC(=O)[C@@H](NC(=O)CNC(=O)[C@@H](NC(=O)[C@H](CCC(=O)O)NC(=O)[C@@H]1CCCN1C(=O)[C@H](CC(=O)O)NC(=O)[C@H](Cc1ccc(O)cc1)NC(=O)[C@H](Cc1ccc(O)cc1)NC(=O)[C@@H](NC(=O)[C@H](C)NC(=O)[C@H](Cc1c[nH]c2ccccc12)NC(=O)[C@@H](NC(=O)[C@H](CC(C)C)NC(=O)[C@H](CCC(=O)O)NC(=O)CNC(=O)[C@H](CC(C)C)NC(=O)[C@H](Cc1c[nH]cn1)NC(=O)[C@H](Cc1c[nH]c2ccccc12)NC(=O)[C@H](C)NC(=O)[C@H](C)NC(=O)[C@@H](N)CC(=O)O)C(C)C)[C@@H](C)O)[C@@H](C)O)[C@@H](C)O)C(=O)N[C@@H](CC(C)C)C(=O)NCC(=O)N[C@@H](CCC(N)=O)C(=O)O [SEQ ID NO: 27]		220 nM

Like-named read-outs stand apart in the source and are kept apart here.
